Source: PMC7714403, “TP-0903 is active in models of drug-resistant acute myeloid leukemia” (JCI Insight, 2020)

Biological target: T1, AXL (Homo sapiens, UniProt P30530)
T1 construct: purchased Eurofins DiscoverX
T1 sequence (P30530 26-894): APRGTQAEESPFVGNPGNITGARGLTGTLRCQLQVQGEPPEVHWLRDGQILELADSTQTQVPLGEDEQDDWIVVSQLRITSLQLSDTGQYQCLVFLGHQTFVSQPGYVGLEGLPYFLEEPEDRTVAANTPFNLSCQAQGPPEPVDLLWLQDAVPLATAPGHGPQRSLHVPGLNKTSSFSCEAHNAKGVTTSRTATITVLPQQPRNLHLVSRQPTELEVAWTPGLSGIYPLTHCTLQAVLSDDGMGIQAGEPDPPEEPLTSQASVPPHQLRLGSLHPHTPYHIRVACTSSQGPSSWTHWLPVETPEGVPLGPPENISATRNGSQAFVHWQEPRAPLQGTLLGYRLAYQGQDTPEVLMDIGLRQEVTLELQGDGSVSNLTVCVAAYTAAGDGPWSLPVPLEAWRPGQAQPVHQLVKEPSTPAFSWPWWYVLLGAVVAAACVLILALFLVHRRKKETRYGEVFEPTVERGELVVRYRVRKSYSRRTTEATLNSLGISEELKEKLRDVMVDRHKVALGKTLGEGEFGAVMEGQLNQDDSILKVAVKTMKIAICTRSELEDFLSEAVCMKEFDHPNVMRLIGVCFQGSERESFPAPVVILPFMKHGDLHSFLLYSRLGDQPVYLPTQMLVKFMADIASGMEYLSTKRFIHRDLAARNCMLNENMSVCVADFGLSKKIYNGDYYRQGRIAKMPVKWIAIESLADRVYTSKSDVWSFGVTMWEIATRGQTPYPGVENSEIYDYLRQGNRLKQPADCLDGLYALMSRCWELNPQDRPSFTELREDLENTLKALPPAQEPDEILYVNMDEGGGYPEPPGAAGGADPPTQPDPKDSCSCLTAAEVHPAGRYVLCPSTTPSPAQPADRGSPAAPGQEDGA
Assay: KdELECT binding assay

CN1CCN(Cc2ccc(Nc3ncc(Cl)c(Nc4ccccc4S(=O)(=O)N(C)C)n3)cc2)CC1 [TP-0903]
Kd: 8.2 nM
